The record followed here is PubChem BioAssay AID1777 (Sanford-Burnham Center for Chemical Genomics, 2009).

Amino acid sequences for entries named in this document (tags omitted).
UniProt P41145, whole entry: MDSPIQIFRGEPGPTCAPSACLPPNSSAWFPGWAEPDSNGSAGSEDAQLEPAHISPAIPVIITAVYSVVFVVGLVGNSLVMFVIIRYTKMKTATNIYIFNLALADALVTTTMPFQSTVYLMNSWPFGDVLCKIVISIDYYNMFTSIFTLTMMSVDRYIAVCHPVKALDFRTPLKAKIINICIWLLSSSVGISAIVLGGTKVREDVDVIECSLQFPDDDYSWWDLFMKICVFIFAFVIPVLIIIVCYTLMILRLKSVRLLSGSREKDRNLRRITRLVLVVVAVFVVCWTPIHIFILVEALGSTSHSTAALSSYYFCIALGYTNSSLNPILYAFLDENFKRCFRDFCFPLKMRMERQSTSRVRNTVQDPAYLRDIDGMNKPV

SMILES strings stand for the structures. The list shows a part of the results, in another mix than the full data. Results with a measured potency or affinity are listed apart. Some salts or complexes appear as unconnected parts, following the source record. Calls of active or inactive are those of the source. No stated cut-off is given here; in the data, active means activation above about 50% (passing the limit was not always enough); inactive means the rest.

The target of this experiment is Kappa-type opioid receptor (Homo sapiens) (UniProt P41145). The experiment in a line: kappa opioid receptor activators – cell-based, luminescence, uHTS, primary screen (AID 1777). The conditions noted are these: KOR beta-arrestin recruitment, at 10 µM, stronger effect = higher value.
Take `COc1ccc2c(c1O)-c1c(O)c(OC)cc3c1[C@H](C2)[N+](C)(C)CC3.O=[N+]([O-])c1cc([N+](=O)[O-])c([O-])c([N+](=O)[O-])c1[O-]`: the activation is inactive: 4.7%.

Turning to `O=C(OCCN1CCN(CCOCc2ccccc2)CC1)C(O)(c1ccccc1)c1ccccc1`, the activation was inactive: 9.9%.

As for `O=C(OC1CN2CCC1CC2)c1ccc([N+](=O)[O-])cc1` (stereo unspecified), the activation is inactive: 3.9%.

Regarding `CC(C)c1ccc(OP(C)(=O)Nc2ccc(SC(F)(F)F)cc2)cc1` (stereo unspecified), the activation is inactive: 1.1%.

As to `CP(=O)(Nc1ccccc1F)Oc1ccccc1` (stereo unspecified), the activation was inactive: 8%.

Regarding `O=[N+]([O-])c1cc([N+](=O)[O-])c(OC2CCCCC2O)c([N+](=O)[O-])c1` (stereo unspecified), the activation is inactive: -3.8%.

With `CP(=O)(Nc1ccccc1)Oc1ccc(F)cc1` (stereo unspecified), the activation is inactive: 5.2%.

With `CCN(CC)CCCOC(=O)C(O)(c1ccccc1)C1CCCCC1` (stereo unspecified), the activation is inactive: -7.5%.

Turning to `COc1ccc(OP(C)(=O)Nc2ccc(SC(F)(F)F)cc2)cc1` (stereo unspecified), the activation is inactive: 6.3%.

On to `CCOC(=O)c1ccc(NP(C)(=O)Oc2ccc(F)cc2)cc1` (stereo unspecified), for which the activation is inactive: 0.8%.

As for `Cc1cc(-c2cccc3ccccc23)c(C)cn1.O=[N+]([O-])c1cc([N+](=O)[O-])c(O)c([N+](=O)[O-])c1`, the activation is inactive: 4.8%.

For `O=[N+]([O-])c1cc([N+](=O)[O-])c(NCC2CCS(=O)(=O)C2)c([N+](=O)[O-])c1` (stereo unspecified), the activation is inactive: -7.4%.

Take `O=[N+]([O-])c1ccc(OP2(=O)COCCO2)cc1` (stereo unspecified): the activation was inactive: 2.7%.

On to `COc1ccc(NP(C)(=O)Oc2ccccc2OC)cc1` (stereo unspecified), for which the activation is inactive: 0.4%.

Turning to `CN(C)CCOC(=O)C(O)(c1ccccc1)C1CCCCC1` (stereo unspecified), the activation was inactive: 1.1%.

As for `CN(C)C1(CNC(=O)c2ccc(Cl)c(S(N)(=O)=O)c2)CCCCC1`, the activation is inactive: 0.1%.

For the compound `COc1ccc(OP(C)(=O)Nc2cccc(Br)c2)cc1` (stereo unspecified), the activation was inactive: 0.7%.

Take `Cc1ccccc1NP(C)(=O)Nc1ccccc1C`: the activation is inactive: -0.9%.

Take `CP(=O)(Nc1ccc2c(c1)OCCO2)Oc1ccccc1` (stereo unspecified): the activation was inactive: -5.8%.

Consider `CCOP(C)(=S)SCC(=O)NC(C)(CC)C(=O)O` (stereo unspecified), for which the activation is inactive: -2.9%.

Regarding `CP(=O)(Nc1ccc(SC(F)(F)F)cc1)Oc1ccc(F)cc1` (stereo unspecified), the activation was inactive: 4%.

With `CCCCN1CCC(C#N)(Nc2ccccc2)CC1`, the activation was inactive: 9.2%.

On to `CN(C)C(=O)c1c([N+](=O)[O-])cc([N+](=O)[O-])cc1[N+](=O)[O-]`, for which the activation is inactive: 0.8%.

On to `CP(=O)(Nc1ccc(Cl)cc1)Oc1ccc(F)cc1` (stereo unspecified), for which the activation was inactive: -0.2%.

For `COc1ccccc1OP(C)(=O)Nc1ccccc1Br` (stereo unspecified), the activation is inactive: -6.3%.

With `CP(=O)(Oc1ccccc1)N1CCOC1=O` (stereo unspecified), the activation was inactive: 5.1%.
